From US12390454B2, “Use and composition for protection against organophosphorus poisoning” (dated 2025)

How the values were obtained:
[1] = 3×3 cm patch, rhesus monkeys; cited from earlier work
[2] = Phase I study: oral pyridostigmine bromide with or without oral aprepitant, gastro-intestinal adverse effects and tolerated dose
[3] = Phase I study: oral pyridostigmine bromide with or without oral ondansetron, gastro-intestinal adverse effects and tolerated dose

## OC(CCN1CCCC1)(c1ccccc1)C1CCCCC1 (stereo not drawn)
[1]
  blood concentration: 10.8 ng/mL

## CN(C)C(=O)Oc1ccc[n+](C)c1
[2]; co-administered with oral aprepitant
  pyridostigmine dose given without gastro-intestinal AEs, relative to the recommended efficacious dose for OP poisoning: up to 6 times
[2]; in the presence of aprepitant, oral, human subjects
  highest tolerated daily dose of pyridostigmine: generally exceeding the recommended dose for the treatment of OP poisoning
[3]; in the presence of ondansetron, oral, human subjects
  highest tolerated daily dose of pyridostigmine: generally exceeding the recommended dose for the treatment of OP poisoning

## CNC(=O)Oc1ccc2c(c1)[C@]1(C)CCN(C)[C@@H]1N2C
[1]
  blood concentration: 0.54 ng/mL

## C[C@@H](O[C@H]1OCCN(Cc2n[nH]c(=O)[nH]2)[C@H]1c1ccc(F)cc1)c1cc(C(F)(F)F)cc(C(F)(F)F)c1
[2]; co-administration of aprepitant (80 mg to 120 mg oral) with pyridostigmine at first intolerable dose (FID), human subjects
  gastro-intestinal AEs reported with pyridostigmine alone at FID: attenuated gastro-intestinal AEs
[2]; oral aprepitant with pyridostigmine in doses as high as or higher than the recommended efficacious dose for OP poisoning
  occurrence of gastro-intestinal AEs: prevented the occurrence of gastro-intestinal AEs

## Cc1nccn1CC1CCc2c(c3ccccc3n2C)C1=O (racemic)
[3]; co-administration of ondansetron hydrochloride dihydrate 10 mg oral with pyridostigmine at first intolerable dose (FID), human subjects
  gastro-intestinal AEs reported with pyridostigmine alone at FID: attenuated gastro-intestinal AEs
[3]; oral high dose ondansetron with pyridostigmine in doses as high as or higher than the recommended efficacious dose for OP poisoning
  occurrence of gastro-intestinal AEs: prevented the occurrence of gastro-intestinal AEs
